In article PMC8815882, “Screening the pandemic response box identified benzimidazole carbamates, Olorofim and ravuconazole as promising drug candidates for the treatment of eumycetoma” (PLoS Neglected Tropical Diseases, 2022):

Tested on: M. mycetomatis genome strain MM55
Assay: CLSI M38-A2 based in vitro susceptibility screening (XTT or resazurin), growth at fixed concentration
Assay type: cell-based, Madurella mycetomatis
Conditions: selected if >75% (resazurin) or >80% (XTT) fungal growth inhibited

For `COC(=O)Nc1nc2ccccc2[nH]1` [MMV344625, Carbendazim], the “Inhibits growth of Madurella mycetomatis at 25 μM” value was “inhibit the growth”.
